The results in this text go back to patent US8518388B2, “Cyclodextrin-based polymers for therapeutics delivery” (dated 2013).

Values joined by “and” are separate entries in the source; they are usually repeats but may differ in a detail not shown here. Equal values may be shown once.

Data set [1] deals with human colorectal adenocarcinoma HT29. In words: IC50 via MTT assay, HT29. To be noted: read-out: IC50, HT29; MTT assay after 72 h; CPT equivalent for HGGG6 and HG6.
Data set [2] has as its system human ovarian carcinoma A2780 cell line. In words: IC50 via MTT assay, A2780. To be noted: read-out: IC50, A2780; MTT assay after 72 h; CPT equivalent for HGGG6 and HG6.
The test system of data set [3] is human colonic adeoncarcinoma LS174T cell line. Description: IC50 via MTT assay, LS174T. To be noted: read-out: IC50, LS174T; MTT assay after 72 h; CPT equivalent for HGGG6 and HG6.
Data set [4] has as its system human LS174T colon carcinoma. Description: Antitumor efficacy study, LS174T xenograft.
Data set [5] in a line: Lactone stability (lactone ring opening) in PBS.
A short description of data set [6]: Hydrolysis of CPT-peptide ester bond in aqueous solution. To be noted: HPLC with UV detector.
Data set [7] has as its system human prostate carcinoma PC-3. Description: IC50 via MTT assay, PC-3. To be noted: read-out: IC50, PC3; MTT assay after 72 h; CPT equivalent for HGGG6 and HG6.
Data set [8] in a line: Determination of maximum tolerable dose (MTD) for CDP-CPT conjugates.
Setting [9] is: CPT 9 mg/kg i.p. Q4D × 2 (Group 2).
Setting [10] is: PBS buffer pH 7.4, room temperature, 7 hours.
[11] abbreviates: 2.25 mg CPT/kg i.v. Days 1, 5, 9.
[12] abbreviates: 4.5 mg CPT/kg i.v. Days 1, 5, 9.

In the case of `CC[C@@]1(O)C(=O)OCc2c1cc1n(c2=O)Cc2cc3ccccc3nc2-1`, the 50% inhibitory concentration (IC50) in data set [1] amounted to 20 nM. Besides, the concentration for half-maximal inhibition (IC50) in data set [2] came out at 7 nM. Moreover, the IC50 in data set [3] was found to be 5 nM. Further, in data set [4] (setting [9]), the “% TGD” value was determined as 47%, the “Maximum mean body weight (MBW) loss” value was 13.1%, the “Median TTE (time to endpoint 1500 mg)” value worked out at 51.4 days and the “NEU (number of mice euthanized after reaching endpoint)” value was determined as 5. Further, in data set [4] (setting [9]), the “NTR (number of treatment-related death)” value is 2, the “Ns (mice surviving to Day 114)” value is on record as “— (0)” and the T-C came to 16.5 days. Further, in data set [4] (CPT 9 mg/kg i.p., two treatment-related deaths on Day 9), the “toxicity judgement at this dose” value is recorded as “toxic”. Also, in data set [5] (setting [10]), the “CPT lactone form transformed to its carboxylate form” value is reported as “more than 60%”.

As to `CC[C@@]1(OC(=O)[C@H](CCCCNC(=O)OCc2ccccc2)NC(=O)OCc2ccccc2)C(=O)OCc2c1cc1n(c2=O)Cc2cc3ccccc3nc2-1`, the “transformation of lactone form to carboxylate form” value in data set [5] (PBS buffer, compared with free CPT (FIG. 4)) is reported as “much slower than that of free CPT”. The “Hydrolysis in aqueous solution” value in data set [6] is recorded as “very slow”.

Consider Gly-CPT, for which the “carboxylate form detected (lactone ring opening)” value in data set [5] (setting [10]) is reported as “no carboxylate forms”.

With GlyGlyGly-CPT, the “carboxylate form detected (lactone ring opening)” value in data set [5] (setting [10]) was “no carboxylate forms”.

In the case of Poly(CDDCys-PA-PEG)-Gly-CPT, the 50% inhibitory concentration (IC50) in data set [1] came to 50 nM; in data set [7] it was 250 nM; in data set [2], 25 nM; in data set [3], 50 nM. Also, the results for the “% TGD” value in data set [4] (4.5 mg CPT/kg i.v. Q4D × 3) and in data set [4] (9 mg CPT/kg i.v. Q4D × 3) were 113% and 227%, respectively. Also, the “Median TTE (time to endpoint 1500 mg)” value in data set [4] (4.5 mg CPT/kg i.v. Q4D × 3) was 74.2 days; in data set [4] (9 mg CPT/kg i.v. Q4D × 3) it was 114 days and 114.0 days. Further, the entries for the “Median Tumor Burden on day 114” value in data set [4] (4.5 mg CPT/kg i.v. Q4D × 3) and in data set [4] (9 mg CPT/kg i.v. Q4D × 3) were 668 mg and 394 mg, respectively. The “NEU (number of mice euthanized after reaching endpoint)” value in data set [4] (4.5 mg CPT/kg i.v. Q4D × 3) and in data set [4] (9 mg CPT/kg i.v. Q4D × 3) was 3 throughout. The “NTR (number of treatment-related death)” value was found to be 1 in data set [4] (4.5 mg CPT/kg i.v. Q4D × 3) and 0 in data set [4] (9 mg CPT/kg i.v. Q4D × 3). For the same compound, the figures for the “Ns (mice surviving to Day 114)” value in data set [4] (4.5 mg CPT/kg i.v. Q4D × 3) and in data set [4] (9 mg CPT/kg i.v. Q4D × 3) were 2 and 4, respectively. Also, the T-C was determined as 39.3 days in data set [4] (4.5 mg CPT/kg i.v. Q4D × 3) and 79.1 days in data set [4] (9 mg CPT/kg i.v. Q4D × 3). Moreover, the “Maximum mean body weight (MBW) loss” value in data set [4] (9 mg CPT/kg i.v. Q4D × 3 (MTD)) was determined as 3.4%. Also, the “tumor growth inhibition compared to D5W, CPT and irinotecan” value in data set [4] (high MW conjugates administered at their MTDs (FIG. 8)) was “more prolonged tumor growth inhibition”. The “Day of max % BW loss” value in data set [8] (setting [11]) came to 9 days; in data set [8] (setting [12]), 5 days; in data set [8] (9 mg CPT/kg i.v. Days 1, 5, 9), 9 days; in data set [8] (18 mg CPT/kg i.v. Days 1, 5, 9), 3 days; in data set [8] (36 mg CPT/kg i.v. Days 1, 5, 9) it was 3 days; in data set [8] (54 mg CPT/kg i.v. Days 1, 5, 9) it was 3 days. Further, the “Max % BW loss” value is −2.9% in data set [8] (setting [11]); −4.4% in data set [8] (setting [12]); −6.1% in data set [8] (9 mg CPT/kg i.v. Days 1, 5, 9); −22.1% in data set [8] (18 mg CPT/kg i.v. Days 1, 5, 9); −23.9% in data set [8] (36 mg CPT/kg i.v. Days 1, 5, 9); −28.5% in data set [8] (54 mg CPT/kg i.v. Days 1, 5, 9). In addition, the “NTR/N (treatment-related deaths / mice treated)” value in data set [8] (setting [11]) is on record as 0/5; in data set [8] (setting [12]) it was 0/5; in data set [8] (9 mg CPT/kg i.v. Days 1, 5, 9), 0/5; in data set [8] (18 mg CPT/kg i.v. Days 1, 5, 9), 3/3; in data set [8] (36 mg CPT/kg i.v. Days 1, 5, 9), 3/3; in data set [8] (54 mg CPT/kg i.v. Days 1, 5, 9) it was 3/3. The “Maximum tolerable dose (MTD)” value in data set [8] (i.v. tail vein injection Days 1, 5, 9, nude mice) came to 9 mg CPT/kg.
